These results are taken from patent publication US20060223786A1.

Some compounds may have been tested in ways that are not shown here.

This series can be described thus: In vitro flux through human cadaver epidermis, Franz cell diffusion method. The settings on record: 1% solution in ethanol in direct contact with human cadaver epidermis, 32° C., receiving buffer PBS pH=7.4, FIG. 1.

For the compound `CCC(=O)N(c1ccccc1)C1CCN(CCc2ccccc2)CC1`, the “in vitro flux through human cadaver epidermis” value is “higher than the flux of fentanyl citrate”.
